## Antibody variant affinities, Ab-14 heavy chain, assay 1

Data: MIT Lincoln Laboratory AlphaSeq set, Engelhart et al. 2022, doi:10.1038/s41597-022-01779-4, as distributed in FLAb.

Target peptide (SARS-CoV-2 spike, HR2 region): PDVDLGDISGINAS

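Phage display of a naive human antibody library on the peptide gave the parent. Variants in AAYL49 differ from the parent at up to three CDR positions; double and triple changes were sampled at random. Affinity was read by AlphaSeq, a pooled yeast mating assay with surface-displayed partners. Binding brings cells together so that they mate, and sequencing counts the barcode pairs among the diploids. Scores were corrected for input abundance and mapped to Kd with protein pairs of known affinity run in the same pool. The assay was run in three technical replicates.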

The variants keep the light chain, the linker and the frameworks of Ab-14 (scFv order VH, the linker GGGGSGGGGSGGGGS, VL).
VH: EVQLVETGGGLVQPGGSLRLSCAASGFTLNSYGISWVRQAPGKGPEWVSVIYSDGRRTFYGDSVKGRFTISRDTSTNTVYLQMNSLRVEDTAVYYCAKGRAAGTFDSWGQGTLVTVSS
VL: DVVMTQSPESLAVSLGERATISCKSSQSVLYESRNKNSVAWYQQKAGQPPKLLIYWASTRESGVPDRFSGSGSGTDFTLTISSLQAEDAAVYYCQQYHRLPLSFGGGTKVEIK

Changes read parent residue, position, new residue, counted from the first residue of the VH shown.
Values are apparent Kd, the geometric mean of the replicates that gave a signal; lower means stronger binding.
A pair that was not seen in any replicate is written "nd"; this usually means weak binding, but a binder can also be missed.
Parent in this assay: reference entry 4.4 nM, copy in this library 13 µM (one replicate of three).

S35K+R56Q+K65F: 580 µM (2 of 3 replicates; controls 2 of 9).
L29Q+G103I+F105H: 290 µM (1 of 3 replicates; controls 2 of 9).
S35V+S53I: nd (0 of 3 replicates; controls 2 of 9).
Y32V+G55M+R100E: nd (0 of 3 replicates; controls 0 of 9).
I34R+V50F+K65Q: nd (0 of 3 replicates; controls 3 of 9).
S35L+I51F+K65E: nd (0 of 3 replicates; controls 1 of 9).
I51Q+R56P+F105W: nd (0 of 3 replicates; controls 0 of 9).
L29G+N30W+T104E: nd (0 of 3 replicates; controls 0 of 9).
V50D+A102G+G103D: 2.7 µM (1 of 3 replicates; controls 0 of 9).
I51W+T104E+D106N: nd (0 of 3 replicates; controls 0 of 9).
S35R+I51L+A101Q: 1.6 mM (2 of 3 replicates; controls 4 of 9).
L29M+I51R+A101K: nd (0 of 3 replicates; controls 1 of 9).
G26A+G33I+S63R: 10 µM (2 of 3 replicates; controls 2 of 9).
D62C+D106N: 7.0 µM (3 of 3 replicates; controls 3 of 9).
D54M+F59S+Y60K: 26 µM (1 of 3 replicates; controls 3 of 9).

The remaining entries, values ahead:

Result nd (0 of 3 replicates; controls 1 of 9), variant D54S+Y60H.
Result nd (0 of 3 replicates; controls 0 of 9), variant I51R+A101C+D106F.
Result 40 µM (1 of 3 replicates; controls 2 of 9), variant S31M+S35E+D106W.
Result 43 nM (3 of 3 replicates; controls 1 of 9), variant F59M+R100T+A101Y.
Result 10 µM (2 of 3 replicates; controls 5 of 9), variant G26F+G99T+F105A.
Result nd (0 of 3 replicates; controls 0 of 9), variant S31N+I51T+S107T.
Result 16 nM (3 of 3 replicates; controls 0 of 9), variant N30D+R100Y+T104C.
Result 91 nM (3 of 3 replicates; controls 2 of 9), variant N30Y+S107V.
Result 100 µM (1 of 3 replicates; controls 4 of 9), variant Y60Q+V64M.
Result 55 µM (2 of 3 replicates; controls 4 of 9), variant G26H+L29H+N30C.
Result 550 nM (1 of 3 replicates; controls 0 of 9), variant D54M+G99I+T104S.
Result nd (0 of 3 replicates; controls 2 of 9), variant R57W+T58R+A102M.
Result 19 µM (1 of 3 replicates; controls 1 of 9), variant I34S+G55H.
Result 1.2 µM (1 of 3 replicates; controls 0 of 9), variant D54L+R57N+R100G.
Result nd (0 of 3 replicates; controls 0 of 9), variant T28I+S35Q+F59M.

Top 4 of the variants detected in all replicates, tightest first:

changes	Kd	replicates with signal	signal with controls
N30D+R100Y+T104C	16 nM	3 of 3	0 of 9
F59M+R100T+A101Y	43 nM	3 of 3	1 of 9
N30Y+S107V	91 nM	3 of 3	2 of 9
D62C+D106N	7.0 µM	3 of 3	3 of 9

Nonspecific signal, from three strains lacking the peptide, appeared in 15% of pairings of library AAYL49, centred on 11 µM (5% of these signals below 680 nM); values are not corrected for it. Also given: how often the same scFv was detected with the empty control strains.